Laboratory results as given in patent US20230059487A1, “PHOTOSENSITIVE MATERIAL, TRANSFER FILM, MANUFACTURING METHOD OF CIRCUIT WIRING, MANUFACTURING METHOD OF TOUCH PANEL, AND PATTERN FORMING METHOD” (FUJIFILM Corporation, priority 2020, published 2023).

Experiment: Measurement of molar absorption coefficients ε365, ε313 and ε365/ε313 in acetonitrile
Format: physicochemical
Conditions: molar absorption coefficient to light of 365 nm in acetonitrile

| Compound | ε365 of Compound β |
| --- | --- |
| Cc1c2ccccc2nc2ccccc12 [Example 9-Methylacridine, 9-Methylacridine] | 6300 (cm mol/L)^−1 |
| Nc1ccncc1 [Example 4-Aminopyridine, 4-Aminopyridine] | <100 (cm mol/L)^−1 |
| COc1cc(C)nc2ccccc12 [Example 2-Methyl-4-methoxyquinoline, 2-Methyl-4-methoxyquinoline] | <10 (cm mol/L)^−1 |
| c1ccc2nc3ccccc3cc2c1 [Example B3, acridine] | 4900 (cm mol/L)^−1 |
| Cc1nccc2ccccc12 [Example B6, 1-Me-isoquinoline] | <10 (cm mol/L)^−1 |
| c1ccncc1 [Example B11, pyridine] | <10 (cm mol/L)^−1 |
| c1ccc(-c2c3ccccc3nc3ccccc23)cc1 [Example 9-Phenylacridine, 9-Phenylacridine] | >10000 (cm mol/L)^−1 |
| c1ccc2cnccc2c1 [Example B1, isoquinoline] | <10 (cm mol/L)^−1 |
| Cc1cc(C)c2c(C)cc(C)nc2c1 [2,4,5,7-Tetramethylquinoline] | <10 (cm mol/L)^−1 |
| c1ccc2ncccc2c1 [Example B2, quinoline] | <10 (cm mol/L)^−1 |
| Clc1ccccn1 [Example 2-Chloropyridine, 2-Chloropyridine] | <10 (cm mol/L)^−1 |
| Cc1cc(C)c2ccccc2n1 [Example B12, 2,4-dimethylquinoline] | <10 (cm mol/L)^−1 |
| CCCCc1ncc(C)c2ccccc12 [Example 1-n-Butyl-4-methylisoquinoline, 1-n-Butyl-4-methylisoquinoline] | <10 (cm mol/L)^−1 |
| CCCCc1nccc2ccccc12 [Example 1-n-Butylisoquinoline, 1-n-Butylisoquinoline] | <10 (cm mol/L)^−1 |
